Our source for the IC50 values is patent publication US20040072770A1, “Methods for specifically inhibiting histone deacetylase-7 and 8” (priority 2002, published 2004).

Chains of the proteins cited; added tags and fusions are not shown.
UniProt Q13547, whole entry: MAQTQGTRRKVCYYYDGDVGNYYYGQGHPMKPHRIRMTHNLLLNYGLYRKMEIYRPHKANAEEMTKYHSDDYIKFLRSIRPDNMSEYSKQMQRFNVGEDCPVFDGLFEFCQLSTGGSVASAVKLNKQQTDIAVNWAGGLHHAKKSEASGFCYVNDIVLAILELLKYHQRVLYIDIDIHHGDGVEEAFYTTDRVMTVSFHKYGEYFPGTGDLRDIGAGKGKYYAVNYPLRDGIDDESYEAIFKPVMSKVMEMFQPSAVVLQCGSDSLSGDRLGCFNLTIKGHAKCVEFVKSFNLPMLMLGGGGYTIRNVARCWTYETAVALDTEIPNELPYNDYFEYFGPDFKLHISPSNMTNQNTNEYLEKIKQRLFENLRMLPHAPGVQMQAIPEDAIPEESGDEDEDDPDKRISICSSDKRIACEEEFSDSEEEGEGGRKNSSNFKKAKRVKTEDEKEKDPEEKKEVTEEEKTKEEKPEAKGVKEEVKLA
UniProt P56524, whole entry: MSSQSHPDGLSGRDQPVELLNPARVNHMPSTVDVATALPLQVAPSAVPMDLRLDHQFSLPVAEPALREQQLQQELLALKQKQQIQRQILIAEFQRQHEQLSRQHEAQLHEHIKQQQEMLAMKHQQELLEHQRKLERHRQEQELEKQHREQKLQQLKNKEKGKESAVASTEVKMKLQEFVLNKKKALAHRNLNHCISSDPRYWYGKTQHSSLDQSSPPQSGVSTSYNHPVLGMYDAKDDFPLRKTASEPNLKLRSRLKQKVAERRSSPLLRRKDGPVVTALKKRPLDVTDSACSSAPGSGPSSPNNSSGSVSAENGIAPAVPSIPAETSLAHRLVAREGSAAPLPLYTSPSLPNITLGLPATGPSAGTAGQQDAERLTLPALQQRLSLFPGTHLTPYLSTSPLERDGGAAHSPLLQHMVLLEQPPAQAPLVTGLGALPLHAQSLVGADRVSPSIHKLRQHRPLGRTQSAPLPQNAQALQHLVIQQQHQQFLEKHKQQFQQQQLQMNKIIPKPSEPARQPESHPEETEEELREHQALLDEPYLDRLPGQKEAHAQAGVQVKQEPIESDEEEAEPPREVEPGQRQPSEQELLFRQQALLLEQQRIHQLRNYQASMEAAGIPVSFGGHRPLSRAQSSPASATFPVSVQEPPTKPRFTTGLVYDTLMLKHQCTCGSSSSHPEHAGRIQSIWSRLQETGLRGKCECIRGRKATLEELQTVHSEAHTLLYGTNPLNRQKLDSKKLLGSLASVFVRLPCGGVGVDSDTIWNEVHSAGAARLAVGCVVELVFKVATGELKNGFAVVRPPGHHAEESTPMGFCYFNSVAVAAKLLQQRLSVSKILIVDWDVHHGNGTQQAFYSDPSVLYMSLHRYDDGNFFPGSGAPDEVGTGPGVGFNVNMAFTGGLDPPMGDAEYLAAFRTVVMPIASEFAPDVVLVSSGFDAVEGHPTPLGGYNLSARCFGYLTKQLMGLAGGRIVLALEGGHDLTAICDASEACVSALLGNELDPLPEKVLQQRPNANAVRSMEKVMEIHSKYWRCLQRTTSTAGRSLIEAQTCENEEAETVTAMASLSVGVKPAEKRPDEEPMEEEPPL
UniProt Q9UBN7, whole entry: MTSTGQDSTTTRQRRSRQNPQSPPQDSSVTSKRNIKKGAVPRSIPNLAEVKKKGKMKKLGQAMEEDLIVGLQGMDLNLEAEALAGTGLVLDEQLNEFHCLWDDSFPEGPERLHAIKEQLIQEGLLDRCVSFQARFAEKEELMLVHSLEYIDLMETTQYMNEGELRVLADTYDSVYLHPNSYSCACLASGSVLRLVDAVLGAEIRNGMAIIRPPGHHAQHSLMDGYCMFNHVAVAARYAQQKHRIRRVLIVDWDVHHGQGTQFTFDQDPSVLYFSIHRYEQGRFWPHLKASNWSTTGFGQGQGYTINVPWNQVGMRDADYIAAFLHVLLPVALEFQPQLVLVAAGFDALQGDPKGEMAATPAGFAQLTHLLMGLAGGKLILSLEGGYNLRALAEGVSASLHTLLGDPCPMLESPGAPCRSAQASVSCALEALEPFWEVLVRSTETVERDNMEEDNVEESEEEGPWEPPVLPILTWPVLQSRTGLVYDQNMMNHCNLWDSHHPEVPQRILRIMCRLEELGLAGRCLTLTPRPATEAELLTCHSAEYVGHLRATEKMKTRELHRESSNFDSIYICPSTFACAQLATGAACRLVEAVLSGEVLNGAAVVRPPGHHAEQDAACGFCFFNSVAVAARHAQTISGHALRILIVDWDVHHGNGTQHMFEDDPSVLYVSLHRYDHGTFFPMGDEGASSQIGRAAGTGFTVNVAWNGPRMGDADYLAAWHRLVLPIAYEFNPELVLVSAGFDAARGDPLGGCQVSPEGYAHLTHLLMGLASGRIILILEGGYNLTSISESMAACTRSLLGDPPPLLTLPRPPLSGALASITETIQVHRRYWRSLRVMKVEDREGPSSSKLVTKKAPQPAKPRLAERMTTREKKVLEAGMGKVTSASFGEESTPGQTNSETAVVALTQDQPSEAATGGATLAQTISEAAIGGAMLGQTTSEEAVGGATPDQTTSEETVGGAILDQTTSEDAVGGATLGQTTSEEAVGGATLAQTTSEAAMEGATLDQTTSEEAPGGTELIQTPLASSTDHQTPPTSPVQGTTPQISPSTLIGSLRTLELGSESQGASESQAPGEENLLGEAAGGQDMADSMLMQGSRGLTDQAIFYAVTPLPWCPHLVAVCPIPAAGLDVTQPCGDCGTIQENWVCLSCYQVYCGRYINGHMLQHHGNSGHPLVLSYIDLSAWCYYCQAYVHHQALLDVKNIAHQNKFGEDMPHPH
UniProt Q9BY41, whole entry: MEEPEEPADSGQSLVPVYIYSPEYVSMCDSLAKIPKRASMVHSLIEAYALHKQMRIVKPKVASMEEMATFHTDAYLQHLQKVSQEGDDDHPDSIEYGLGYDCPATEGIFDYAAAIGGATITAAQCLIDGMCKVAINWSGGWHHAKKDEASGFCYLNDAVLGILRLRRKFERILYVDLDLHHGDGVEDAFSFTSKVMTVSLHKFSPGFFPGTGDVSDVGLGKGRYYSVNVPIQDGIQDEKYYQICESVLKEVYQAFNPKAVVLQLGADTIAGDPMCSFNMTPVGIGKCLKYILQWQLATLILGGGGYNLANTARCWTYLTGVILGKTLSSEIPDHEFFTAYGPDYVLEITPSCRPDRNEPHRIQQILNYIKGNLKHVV

One test deals with HDAC-1 (Homo sapiens, UniProt Q13547). Nature of the test: Enzyme inhibitory activity, HD1. The class given is biochemical. The settings on record: read-out: IC50 HD 1.
Another test has as its target HDAC-4 (Homo sapiens, UniProt P56524). Kind of test: Enzyme inhibitory activity, HD4. The class given is biochemical. The conditions noted are these: read-out: IC50 HD4.
Another test addresses HDAC-6 (Homo sapiens, UniProt Q9UBN7). Kind of test: Enzyme inhibitory activity, HD6. The settings on record: read-out: IC50 HD 6. The test is classed as biochemical.
The target in another test is HDAC-8 (Homo sapiens, UniProt Q9BY41). Nature of the test: Enzyme inhibitory activity, HD8. The settings on record: read-out: IC50 HD 8. The test is classed as biochemical.
The test system of test [1] is colon cancer cells HCT116. Kind of test: MTT assay, HCT116. The conditions noted are these: read-out: IC50 HCT 116 (MTT); 72 hours. Here is the method: (§1) Effects of HDAC isotype-specific small molecule inhibitors on growth inhibition of various human cancer cells (from ATCC) in vitro were determined by MTT assays. Briefly, cells seeded in 96-well plates were incubated for 72 hours at 37° C. in a 5% CO2 incubator. MTT (Sigma) was added at a final concentration of 0.5 mg/ml and incubated with the cells for 4 hours before an equal volume of solubilization buffer (50% N,N-dimethylformamide, 20% SDS, pH 4.7) was added onto cultured cells. After overnight incubation, solubilized dye was quantified by colorimetric reading at […] using a reference at 630 nM. OD values were converted to cell numbers according to a standard growth curve of the relevant cell line. The concentration which reduces cell numbers to 50% of those of DMSO-treated cells is determined as MTT IC50. In Table 4, IC50s of several HDAC7 or HDAC8 inhibitors in MTT assays in various human cancer cell lines were listed. They include colon cancer cells HCT116 and SW48, lung cancer cells A549 and H446, breast cancer cells MCF-7 and MDAmb231, a prostate cancer cell line Du145 and a bladder cancer cell line T24.
A general note: Formazan colour is commonly taken as a measure of viable cells.

Test [2] deals with prostate cancer cell line Du145. Nature of the test: MTT assay, Du145. The settings on record: read-out: IC50 Du 145 (MTT); 72 hours. As for the experimental part:
as §1

A further test relates to lung cancer cells A549. Kind of test: MTT assay, A549. The settings on record: read-out: IC50 A 549 (MTT); 72 hours. Here is the method: as §1
For test [3], the system named is breast cancer cells MCF-7. Nature of the test: MTT assay, MCF-7. The settings on record: read-out: MTT IC50 MCF 7; 72 hours. Here is the method: as §1
The test system of a further test is colon cancer cells SW48. Kind of test: MTT assay, SW48. The conditions noted are these: read-out: MTT IC50 SW 48; 72 hours. Here is the method:
as §1

Test [4] relates to bladder cancer cell line T24. Kind of test: MTT assay, T24. The conditions noted are these: read-out: MTT IC50 T 24; 72 hours. Here is the method:
as §1

Molecules are shown by their SMILES.

What is called IC50 is the concentration that inhibits the measured activity by half. `Nc1nc(NCc2ccc(C(=O)Nc3ccccc3N)cc2)nc(NC2Cc3ccccc3C2)n1`: the IC50 is 0.4 µM on HDAC-1; more than 50 µM at HDAC-4; more than 50 µM on HDAC-6; 35 µM on HDAC-8; 0.5 µM in [1]; 0.9 µM in test [2]. In addition, the 50% inhibitory concentration (IC50) in the test with lung cancer cells A549 stood at 3 µM; in [3] it was 3 µM; with colon cancer cells SW48, 3 µM; in test [4] it was 2 µM.
